As a reminder, the Ki is the equilibrium dissociation constant of an inhibitor or competing ligand from its target. Higher therefore signals a looser hold on the target.

Chains of the proteins cited; added tags and fusions are not shown.
UniProt P0DMS8, whole entry: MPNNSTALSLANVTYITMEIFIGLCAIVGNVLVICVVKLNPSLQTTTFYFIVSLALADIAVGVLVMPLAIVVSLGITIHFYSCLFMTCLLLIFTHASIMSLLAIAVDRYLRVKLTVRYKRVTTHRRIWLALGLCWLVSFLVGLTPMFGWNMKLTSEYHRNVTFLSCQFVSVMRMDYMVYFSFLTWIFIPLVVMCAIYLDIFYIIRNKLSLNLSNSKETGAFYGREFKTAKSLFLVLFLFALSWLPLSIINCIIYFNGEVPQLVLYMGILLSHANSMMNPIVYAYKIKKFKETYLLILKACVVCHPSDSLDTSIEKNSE

For one compound, Ki results are on record in BindingDB's records for doi:10.1073/pnas.90.21.10365 (Merck Research Laboratories, 1993).

“And” between values parts separate entries of the source, which are not always exact repeats. Equal entries are not always repeated.

This test deals with Adenosine receptor A3 (Homo sapiens, UniProt P0DMS8).

On to `CC(Cc1ccccc1)Nc1ncnc2c1ncn2C1OC(CO)C(O)C1O` (stereo unspecified) [R-N6-(2-phenylisopropyl) adenosine], for which the Ki is 33.9 nM and 324 nM.
